Experimental data published in patent US20260069578A1, “TREATMENT OF NEUTROPHILIC DERMATOSES” (UNION THERAPEUTICS A/S, priority 2022, published 2026).

The chains behind the UniProt entries cited, without tags or fusion partners. Residues count along the entry.
UniProt P27815, 1-825 isoform P27815-6: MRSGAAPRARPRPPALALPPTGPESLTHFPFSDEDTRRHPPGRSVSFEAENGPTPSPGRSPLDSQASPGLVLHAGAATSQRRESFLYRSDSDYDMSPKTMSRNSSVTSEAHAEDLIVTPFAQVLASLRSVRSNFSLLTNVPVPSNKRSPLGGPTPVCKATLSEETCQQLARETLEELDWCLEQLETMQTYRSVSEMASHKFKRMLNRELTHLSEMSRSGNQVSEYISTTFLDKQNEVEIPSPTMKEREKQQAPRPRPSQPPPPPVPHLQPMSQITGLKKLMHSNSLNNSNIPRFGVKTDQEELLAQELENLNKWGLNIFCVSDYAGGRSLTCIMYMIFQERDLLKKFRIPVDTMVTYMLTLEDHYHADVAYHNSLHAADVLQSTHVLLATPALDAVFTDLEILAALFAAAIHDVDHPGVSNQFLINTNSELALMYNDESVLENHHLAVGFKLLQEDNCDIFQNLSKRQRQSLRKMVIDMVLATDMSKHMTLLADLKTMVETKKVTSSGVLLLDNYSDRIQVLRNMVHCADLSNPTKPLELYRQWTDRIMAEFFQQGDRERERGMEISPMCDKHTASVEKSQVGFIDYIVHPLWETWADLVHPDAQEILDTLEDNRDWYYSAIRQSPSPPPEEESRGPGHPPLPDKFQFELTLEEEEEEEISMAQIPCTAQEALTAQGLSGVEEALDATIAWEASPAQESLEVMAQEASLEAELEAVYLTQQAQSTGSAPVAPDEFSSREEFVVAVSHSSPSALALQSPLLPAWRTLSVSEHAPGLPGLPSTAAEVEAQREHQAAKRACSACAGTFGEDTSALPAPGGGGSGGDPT
UniProt Q08493, 107-712: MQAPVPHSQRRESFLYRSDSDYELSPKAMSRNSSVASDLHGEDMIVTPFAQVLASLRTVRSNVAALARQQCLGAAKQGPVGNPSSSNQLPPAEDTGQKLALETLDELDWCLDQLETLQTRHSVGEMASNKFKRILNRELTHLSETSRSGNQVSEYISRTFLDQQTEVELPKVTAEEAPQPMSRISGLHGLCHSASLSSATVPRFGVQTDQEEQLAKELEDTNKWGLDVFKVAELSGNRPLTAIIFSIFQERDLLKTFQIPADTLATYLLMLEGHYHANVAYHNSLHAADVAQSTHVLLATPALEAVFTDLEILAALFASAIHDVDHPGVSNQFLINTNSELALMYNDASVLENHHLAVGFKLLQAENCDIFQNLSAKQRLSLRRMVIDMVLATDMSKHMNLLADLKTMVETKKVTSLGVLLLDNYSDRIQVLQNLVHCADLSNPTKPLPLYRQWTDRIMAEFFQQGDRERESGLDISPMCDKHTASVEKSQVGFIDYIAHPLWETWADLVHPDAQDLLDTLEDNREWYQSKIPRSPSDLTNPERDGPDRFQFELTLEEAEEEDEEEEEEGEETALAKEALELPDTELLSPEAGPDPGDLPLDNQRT

Assays:
Assay type in all cases: biochemical
[1] = biological target: PDE4A4 (Homo sapiens, UniProt P27815)
[2] = biological target: PDE4A10 (Homo sapiens, UniProt P27815)
[3] = biological target: PDE4C2 (Homo sapiens, UniProt Q08493)
Procedure: Enzyme Preparations: Partially purified human recombinant phosphodiesterases (PDEs) were obtained by cloning cDNA and expressing in S. frugiperda insect cells using a baculovirus expression system. Cells are harvested from culture by centrifuging at 400×g for 5 minutes. Cell pellet is resuspended in 20 ml of RIPA Buffer (150 mM NaCl, 10 mM Tris, 0.1% NP-40, pH8.3), 4 ml/200 ml of culture, plus protease inhibitors (100 μl/10 ml) and incubated on ice for 10-20 minutes then spun at 3500×g for 10 minutes at 4° C. Supernatant is kept and the pellet thrown away.
Tritium-labelled cyclic AMP is hydrolysed to 5′-AMP o by PDE. The 5′-AMP is then further hydrolysed to adenosine by nucleotidase in snake venom. An anion-exchange resin binds all charged nucleotides and leaves [^3H]adenosine as the only labelled compound to be counted by liquid scintillation.
50 μl of diluted PDE enzyme was incubated with 50 μl of [^3H]-cAMP (specific activity 25 Ci/mmol) and 11 μl of 50% DMSO (or compound dilution) for 20 minutes at 30° C. […] 5 μl of supernatant was removed and added to 200 μl of MicroScint-20 in white plates (Greiner 96 well Optiplate) and shaken for 30 minutes before reading on Perkin Elmer TopCount Scintillation Counter. […] values were calculated using GraphPad Prism software (version 8).

CCOc1cc([C@@H](CS(C)(=O)=O)N2C(=O)c3cccc(NC(C)=O)c3C2=O)ccc1OC [Apremilast, reference compound]
IC50 [1]: 42.4 nM
IC50 [2]: 342 nM
IC50 [3]: 295 nM
